Laboratory results: publication PMC2749821 (BMC Biology, 2009)

How the values were obtained:
Conditions in all cases: both partners purified
[1] = target: T1, activin receptor type II (ActR-II) ectodomain, human (human, UniProt P27037 18-135, N-biotinylated (sulfo-NHS-LC-biotin) where immobilised); assay: SPR; ligands as analyte over immobilized receptor ectodomains, 0.36% CHAPS added to HBS500 buffer
T1 construct: also called hActR-II

[2] = target: T1, activin receptor type II (ActR-II) …; assay: SPR; Biacore 2000; receptor ectodomains as analyte over biotinylated ligands on streptavidin-coated CM5 chips; HBS500, 25°C, 10 μl/min; apparent affinities, 1:1 interaction
[3] = target: T2, BMP receptor II (BMPR-II) ectodomain, human (human, UniProt Q13873 32-150, N-biotinylated (sulfo-NHS-LC-biotin) where immobilised); assay: SPR; Biacore 2000; ligands as analyte over biotinylated receptor ectodomains (about 200 RU) on streptavidin-coated CM5 chips; HBS500 (10 mM HEPES pH 7.4, 500 mM NaCl, 3.4 mM EDTA, 0.005% P20), 25°C, 10 μl/min; apparent affinities, 1:2 interaction with avidity
T2 construct: also called hBMPR-II
T2 sequence (looked up): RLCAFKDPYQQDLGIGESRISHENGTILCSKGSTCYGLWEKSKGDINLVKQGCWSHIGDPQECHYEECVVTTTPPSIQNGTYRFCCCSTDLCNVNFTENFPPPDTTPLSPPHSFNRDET

[4] = target: T1, activin receptor type II (ActR-II) …; assay: as above

B1: growth and differentiation factor 5 (GDF5), mature part (ligand)
chain: MKRQGKRPSKNLKARCSRKALHVNFKDMGWDDWIIAPLEYEAFHCEGLCEFPLRSHLEPTNHAVIQTLMNSMDPESTPPTCCVPTRLSPISILFIDSANNVVYKQYEDMVVESCGCR
modifications: biotin (sulfo-NHS-LC-biotin) where immobilised
notes: N-terminal Met-Lys added to the mature part; dimeric ligand; source: E. coli, isolated from inclusion bodies, renatured and purified
Question: B1 was tested. Which “fold decrease of binding with CHAPS against without CHAPS” value [1] did it give?
Answer: 30 fold

Question: And the Kd [2]?
Answer: 22000 nM

Question: What about the koff [2] of the same binder?
Answer: > 0.1 s⁻¹

Question: What about the koff [3] of the same binder?
Answer: 0.038 s⁻¹

Question: What about the “KD (kin)” value [4] of the same binder?
Answer: 20 nM

Question: And the Kd [4]?
Answer: 32 nM

Question: What about the koff [4] of the same binder?
Answer: 0.028 s⁻¹

Question: And the kon [4]?
Answer: 1.4e+06 M⁻¹ s⁻¹
